Experimental data reported in patent US20240109952A1 (KAHR MEDICAL, published 2024).

Sequences of proteins named here, by UniProt entry; tags and fusion partners are left off. A change or cut given only in a name is not applied to a line headed by its entry. Residues count along the entry.
UniProt Q08722, 19-139 limits assumed: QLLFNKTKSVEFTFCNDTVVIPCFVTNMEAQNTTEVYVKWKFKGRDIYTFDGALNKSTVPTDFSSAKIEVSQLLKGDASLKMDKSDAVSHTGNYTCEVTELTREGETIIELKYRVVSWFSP
UniProt Q07011: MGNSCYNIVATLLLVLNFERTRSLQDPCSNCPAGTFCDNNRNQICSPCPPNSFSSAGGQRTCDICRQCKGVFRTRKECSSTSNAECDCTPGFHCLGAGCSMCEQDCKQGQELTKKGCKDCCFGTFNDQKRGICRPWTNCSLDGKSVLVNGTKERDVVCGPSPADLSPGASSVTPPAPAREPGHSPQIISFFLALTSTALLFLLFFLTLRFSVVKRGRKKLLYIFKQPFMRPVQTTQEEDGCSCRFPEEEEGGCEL

Experiments:
[1] = molecular target: T1, CD47:Fc (Sino Biological, cat # 12283-H02H) (UniProt Q08722, in part); assay: bio-layer interferometry (Blitz), biosensor pre-loaded with CD47:Fc; concentration not shown
T1 construct: Bought reagent; not shown: Fc part of the bought fusion
Method: Methods and resultt—The biosensor was pre-loaded with CD47:Fc, which led to a stable association plateau (FIG. 3A). Upon subsequent incubation with his-tagged SIRPα-41BBL (SEQ ID NO: 5) a rapid association of the his-tagged SIRPα-41BBL to CD47:Fc was detected (FIG. 3A). […] Upon reaching a stable association plateau, the biosensor was washed with medium to determine the off-rate of the his-tagged SIRPα-41BBL from CD47:Fc.

[2] = molecular target: T2, 41BB:Fc (Sino Biological, cat # 10041-H03H) (UniProt Q07011, in part); assay: bio-layer interferometry (Blitz), biosensor pre-loaded with 41BB:Fc; concentration not shown
T2 construct: Bought reagent; not shown: Fc part of the bought fusion
Method: Upon similar loading of the biosensor with 41BB:Fc, binding of the 41BBL unit of his-tagged SIRPα-41BBL (SEQ ID NO: 5) was evaluated (FIG. 3B). As with the SIRPα domain, the 41BBL domain of the his-tagged SIRPα-41BBL rapidly bound to its target receptor (FIG. 3B), with the off-rate for the 41BBL/41BB interaction being also very slow, as evident from the limited dissociation occurring during the last dissociation phase.

binding result [1]: no binding
binding result [2]: no binding
B1: PD1-CD70 protein (SEQ ID NO: 6) (other)
chain: HHHHHHPGWFLDSPDRPWNPPTFSPALLVVTEGDNATFTCSFSNTSESFVLNWYRMSPSNQTDKLAAFPEDRSQPGQDCRFRVTQLPNGRDFHMSVVRARRNDSGTYLCGAISLAPKAQIKESLRAELRVTERRAEVPTAHPSPSPRPAGQFQTLVGQRFAQAQQQLPLESLGWDVAELQLNHTGPQQDPRLYWQGGPALGRSFLHGPELDKGQLRIHRDGIYMVHIQVTLAICSSTTASRHHPTTLAVGICSPASRSISLLRLSFHQGCTIASQRLTPLARGDTLCTNLTGTLLPSRNTDETFFGVQWVRP
notes: also called control protein PD1-CD70
